Laboratory results: article PMC7948503, “Optimization of a peptide ligand for the adhesion GPCR ADGRG2 provides a potent tool to explore receptor biology” (The Journal of Biological Chemistry, 2020)

Biological target: T1, ADGRG2-ΔGPS-β (Mus musculus, UniProt Q8CJ12)
T1 construct: the entire ECD (including the entire GPS motif) was removed (ADGRG2-ΔGPS-β); expressed in transfected cells; host or cells: HEK293
Assay: GloSensor cAMP assay, HEK293 transfected with ADGRG2-ΔGPS-β
Assay type: cell-based
Text: Wildtype ADGRG2 full-length (ADGRG2-FL) was cloned from mouse total cDNA libraries using the following primers: forward, […]; reverse, […], and then ADGRG2-FL, ADGRG2 C-terminal truncation mutant (ADGRG2-β), and ADGRG2-ΔGPS-β (the entire ECD of ADGRG2 was deleted) were subcloned into the pcDNA3.1 expression vector. The ADGRG2-ΔGPS-β mutants (T610A, Y611A, C614A, S661A, W662A, I663A, L665A, Y666A，N667A, F671A, L679A, L683A, I730A, V731A, F741A, F747A, W757A, I758A, N759A, S760A, V762A, F764A, Y765A, V768A, V769A, F772A, V774A, W824A, F826A, F828A, F829A, V834A, V836A, F838A, M839A, I844A, F845A) were generated using a QuikChange Mutagenesis Kit (Stratagene). All mutations were verified by DNA sequencing.
Human embryonic kidney 293 (HEK293) cells were maintained in Dulbecco’s modified Eagle’s medium supplemented with 10% fetal bovine serum, penicillin (100 IU/ml), and streptomycin (100 μg/ml) as described ([6], [38]). For receptor or other protein expression, plasmids carrying the desired genes were transfected into cells using Lipofectamine 2000 (Invitrogen).
The Glosensor cAMP assay was performed as described ([6], [39], [40]). HEK293 cells were transfected with the GloSensor plasmid and the desired expression plasmids in 24-well dishes. […] The cAMP signal was examined using a luminescence counter (Mithras LB 940).

cAMP accumulation / signal transduction activity compared with wildtype p15 (100 μM peptide, HEK293 ADGRG2-ΔGPS-β, Glosensor, repeated 12 times): higher signal transduction activities | EC50 compared with wildtype p15 or other mutants (concentration-response curves, cAMP Glosensor, ADGRG2-ΔGPS-β): lower EC50 value than wildtype p15
Substance: F3Tyr(Me): p15 mutant, Phe at +3 substituted by unnatural amino acid Tyr(Me) (TS; Tyr(Me) in place of F at position 3)
